Data published in patent publication US12551567B2, “Bicyclic peptide ligands specific for PD-L1” (BicycleRD Limited, priority 2018, dated 2026).

The chains behind the UniProt entries cited, without tags or fusion partners. Residues count along the entry.
UniProt Q9NZQ7, 19-290: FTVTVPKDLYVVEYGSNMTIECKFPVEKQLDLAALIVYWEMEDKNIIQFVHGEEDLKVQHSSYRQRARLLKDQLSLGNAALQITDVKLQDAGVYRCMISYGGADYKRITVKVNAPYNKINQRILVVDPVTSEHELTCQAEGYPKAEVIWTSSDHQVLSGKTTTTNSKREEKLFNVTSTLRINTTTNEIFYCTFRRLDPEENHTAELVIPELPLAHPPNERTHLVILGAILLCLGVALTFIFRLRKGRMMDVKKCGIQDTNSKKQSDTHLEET

The substances below were run against T1, human PD-L1 (Homo sapiens, UniProt Q9NZQ7) (assay: PD-L1 Direct Binding Assay (fluorescence polarisation)). Conditions: 25° C., TBMB scaffold.
Description: Affinity of the peptides of the invention for human PD-L1 (Ki) was determined using a fluorescence polarisation assay, in accordance with the methods disclosed in WO2016/067035. Peptides of the invention with a fluorescent tag (either fluorescein, SIGMA or Alexa Fluor488™, Fisher Scientific) were diluted to 2.5 nM in PBS with 0.01% tween 20 or 50 mM HEPES with 100 mM NaCl and 0.01% tween pH 7.4 (both referred to as assay buffer). This was combined with a titration of protein in the same assay buffer as the peptide to give 1 nM peptide in a total volume of 25 μL in a black walled and bottomed low bind low volume 384 well plates, typically 5 μL assay buffer, 10 μL protein then 10 μL fluorescent peptide. One in two serial dilutions were used to give 12 different concentrations with top concentrations ranging from 500 nM for known high affinity binders to 10 μM for low affinity binders and selectivity assays. Measurements were conducted on a BMG PHERAstar FS equipped with an “FP 485 520 520” optic module which excites at 485 nm and detects parallel and perpendicular emission at 520 nm. The PHERAstar FS was set at 25° C. with 200 flashes per well and a positioning delay of 0.1 second, with each well measured at 5 to 10 minute intervals for 60 minutes. The gain used for analysis was determined for each tracer at the end of the 60 minutes where there was no protein in the well. Data was analysed using Systat Sigmaplot version 12.0. mP values were fit to a user defined quadratic equation to generate a Kd value: f=ymin+(ymax−ymin)/Lig*((x+Lig+Kd)/2−sqrt((((x+Lig+Kd)/2)^2)−(Lig*x))). “Lig” was a defined value of the concentration of tracer used.
[FI][B-Ala][Sar]5ACPFPVEWCPRCA [BCY545] gave a Kd of 65.7 ± 23.5 nM.
With [FI][B-Ala][Sar]5ACPFPEEWCPRCA [BCY544] the Kd was 370 nM.

Same assay, conditions: 25° C., TBMB scaffold, read-out: Kd
Substance ACPFPVEWCSRCA [BCY507] has a Kd of 157 nM.
[FI]G[Sar]5ACPDNNSICHLWCA [BCY583] showed a Kd of 199 ± 69.4 nM.
ACPFPVEWCPRCA[Sar]6[KFI] [BCY546] gave a Kd of 48.7 ± 8.42 nM.
Work on ACPFPVEWCSRCA[Sar]6[KFI] [BCY543] yielded a Kd of 779 ± 25.5 nM.
With ACPDNNSICHLWCA[Sar]6[KFI] [BCY550] the Kd was 322 ± 22.5 nM.
ACPDPHNICHLWCA [BCY516] gave a Kd of 48.8 nM.
In the case of ACPFPPHWCPRQCA[Sar]6[KFI] [BCY551], the Kd is reported as 596 nM.
In the case of ACPFPVEWCPRCA [BCY509], the Kd is reported as 7.88 nM.
For [FI]G[Sar]5ACPDPHGICHLWCA [BCY584], the Kd was 88.5 ± 21.6 nM.
With ACPDPHGICHLWCA [BCY515] the Kd was 51.2 nM.
ACPDNNSICHLWCA [BCY514] gave a Kd of 165 nM.
ACPFPEEWCPRCA [BCY508] showed a Kd of 75.1 nM.

These substances were tested against T1, human PD-L1 (assay: PD-L1 SPR Binding Assay (Biacore)). Conditions: Biacore 3000, biotinylated PD-L1 captured on streptavidin, 25° C.
Design: purchased Sino Biologicals or R&D systems
Description: Biacore experiments were performed to determine ka (M^−1s^−1), kd (s^−1), KD (nM) values of monomeric peptides binding to human PD-L1 protein. […] The protein was desalted to remove uncoupled biotin using spin columns into PBS. For analysis of binding, a Biacore 3000 instrument was used utilizing a CM5 sensor chip (GE Healthcare). Streptavidin was immobilized on the chip using standard amine-coupling chemistry at 25° C. with HBS-N (10 mM HEPES, 0.15 M NaCl, pH 7.4) as the running buffer. The carboxymethyl dextran surface was activated with a 12 min injection of a 1:1 ratio of 0.4 M 1-ethyl-3-(3-dimethylaminopropyl) carbodiimide hydrochloride (EDC)/0.1 M N-hydroxy succinimide (NHS) at a flow rate of 10 μl/min. For capture of streptavidin, protein was diluted to 0.1 mg/ml in 10 mM sodium acetate (pH 4.5) and captured by injecting 70 μl onto the activated chip surface. Residual activated groups were blocked with a 7 min injection of 1 M ethanolamine (pH 8.5). Biotinylated PD-L1 stock was diluted 1:100 in HBS-N and captured on one flow cell at 5 μl/min to a level of 1000-1300 RU. Buffer was changed to PBS/0.05% Tween 20 and a dilution series of the peptides was prepared in this buffer with a final DMSO concentration of 0.5%. The top concentrations were 200 nM or 500 nM with 6 2-fold dilutions. The SPR analysis was run at 25° C. at a flow rate of Flow rate 50 μl/min with 60 seconds association and 400 seconds disassociation. Data were corrected for DMSO excluded volume effects. All data were double-referenced for blank injections and reference surface using standard processing procedures and data processing and kinetic fitting were performed using Scrubber software, version 2.0c (Biologic Software). Data were fitted using mass transport model allowing for mass transport effects where appropriate.
In the case of ACPDPHNICHLWCA [BCY516], the Kd is reported as 171 nM.
ACPFPVEWCPRCA [BCY509] was tested, and the Kd was 24.1 nM.
ACPDPHGICHLWCA [BCY515] was tested, and the Kd was 212 nM.

What follows are substances tested against T1, human PD-L1 (assay: PD-L1 Competition Binding Assay (fluorescence polarisation, tracer BCY585)). Conditions: fluorescence polarisation competition with BCY585, TBMB scaffold.
Description: Peptides were diluted to an appropriate concentration in assay buffer as described in the direct binding assay with a maximum of 5% DMSO, then serially diluted 1 in 2. Five μL of diluted peptide was added to the plate followed by 10 μL of human PD-L1, then 10 μL fluorescent peptide added. Measurements were conducted as for the direct binding assay, however the gain was determined prior to the first measurement. Data analysis was in Systat Sigmaplot version 12.0 where the mP values were fit to a user defined cubic equation to generate a Ki value: f=ymin+(ymax−ymin)/Lig*((Lig*((2*((Klig+Kcomp+Lig+Comp−Prot*c)^2−3*(Kcomp*(Lig−Prot*c)+Klig*(Comp−Prot*c)+Klig*Kcomp))^0.5*COS(ARCCOS((−2*(Klig+Kcomp+Lig+Comp−Prot*c)^3+9*(Klig+Kcomp+Lig+Comp−Prot*c)*(Kcomp*(Lig−Prot*c)+Klig*(Comp−Prot*c)+Klig*Kcomp)−27*(−1*Klig*Kcomp*Prot*c))/(2*((((Klig+Kcomp+Lig+Comp−Prot*c)^2−3*(Kcomp*(Lig−Prot*c)+Klig*(Comp−Prot*c)+Klig*Kcomp))^3)^0.5)))/3))−(Klig+Kcomp+Lig+Comp−Prot*c)))/((3*Klig)+((2*((Klig+Kcomp+Lig+Comp−Prot*c)^2−3*(Kcomp*(Lig−Prot*c)+Klig*(Comp−Prot*c)+Kig*Kcomp))^0.5*COS(ARCCOS((−2*(Klig+Kcomp+Lig+Comp−Prot*c)^3+9*(Klig+Kcomp+Lig+Comp−Prot*c)*(Kcomp*(Lig−Prot*c)+Klig*(Comp−Prot*c)+Klig*Kcomp)−27*(−1*Klig*Kcomp*Prot*c))/(2*((((Klig+Kcomp+Lig+Comp−Prot*c)^2−3*(Kcomp*(Lig−Prot*c)+Klig*(Comp−Prot*c)+Klig*Kcomp))^3)^0.5)))/3))−(Klig+Kcomp+Lig+Comp−Prot*c)))).
“Lig”, “KLig” and “Prot” were all defined values relating to: fluorescent peptide concentration, the Kd of the fluorescent peptide and PD-L1 concentration respectively.
Work on ACPFPVEWCSRCA [BCY507] yielded a Ki of 157 ± 24.2 nM.
Substance ACPDPHNICHLWCA [BCY516] has a Ki of 48.8 ± 54.4 nM.
ACPFPVEWCPRCA [BCY509] was tested, and the Ki was 6.53 ± 7.68 nM.
Work on ACPDPHGICHLWCA [BCY515] yielded a Ki of 51.2 ± 63 nM.
For ACPDNNSICHLWCA [BCY514], the Ki was 165 ± 159 nM.
Work on ACPFPEEWCPRCA [BCY508] yielded a Ki of 75.1 ± 53.5 nM.
